Results on 2 molecules are retold here after patent publication US10195181B2, “Carboxamide derivatives” (Novartis AG, priority 2014, dated 2019).

Chains of the proteins cited; added tags and fusions are not shown.
UniProt Q9HCE7, whole entry: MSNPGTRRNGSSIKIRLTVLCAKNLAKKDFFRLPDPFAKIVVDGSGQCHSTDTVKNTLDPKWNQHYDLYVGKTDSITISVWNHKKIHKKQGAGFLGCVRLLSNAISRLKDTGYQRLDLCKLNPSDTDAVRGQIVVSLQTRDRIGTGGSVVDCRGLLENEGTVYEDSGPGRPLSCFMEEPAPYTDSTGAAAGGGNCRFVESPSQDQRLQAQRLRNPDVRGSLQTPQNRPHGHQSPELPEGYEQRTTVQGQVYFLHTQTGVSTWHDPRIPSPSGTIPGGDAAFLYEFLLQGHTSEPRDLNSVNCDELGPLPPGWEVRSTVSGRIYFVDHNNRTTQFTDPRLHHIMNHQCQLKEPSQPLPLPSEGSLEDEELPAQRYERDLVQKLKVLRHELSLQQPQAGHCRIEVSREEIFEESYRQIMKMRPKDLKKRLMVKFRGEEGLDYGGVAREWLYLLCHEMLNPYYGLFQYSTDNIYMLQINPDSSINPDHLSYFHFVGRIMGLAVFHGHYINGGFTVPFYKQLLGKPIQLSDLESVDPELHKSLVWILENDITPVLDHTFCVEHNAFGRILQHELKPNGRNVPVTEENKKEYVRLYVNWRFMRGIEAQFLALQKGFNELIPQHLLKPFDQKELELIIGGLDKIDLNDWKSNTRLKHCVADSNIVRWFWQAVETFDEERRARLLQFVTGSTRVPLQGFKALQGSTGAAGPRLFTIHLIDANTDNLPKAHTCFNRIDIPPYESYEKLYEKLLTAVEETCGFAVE

The target in this assay is Smurf-1 (Homo sapiens (Human), UniProt Q9HCE7). The assay is described as follows: HECT E3 ligase autoubiquitinylation TR-FRET assay (Smurf-1). The class given is biochemical. From the text: To determine the HECT E3 ligase selectivity of the compounds, a panel of biochemical HECT E3 ligase autoubiquitinylation assays was employed (Smurf-1, Smurf-2, WWP1, WWP2, ITCH, Nedd4, Nedd4L and E6AP). The conjugation of ubiquitin to a protein substrate is a multistep process. In an initial ATP-requiring step, a thioester bond is formed between the carboxyl terminus of ubiquitin and an internal cystein residue of the ubiquitin-activating enzyme (E1). Activated ubiquitin is then transferred to a specific cystein residue of an ubiquitin-conjugating enzyme (E2). E2s donate ubiquitin to a HECT E3 ligase (E3) from which it is transferred to the substrate protein. HECT E3 ligases can auto-ubiquitinylate. This event is detected in the TR-FRET (Time-Resolved Fluorescence Resonance Energy Transfer) assay used in this panel. The reaction mix contains E1, E2, tagged-E3, biotin-conjugated ubiquitin, the compound and ATP in a suitable buffer and is incubated for 45 minutes to allow auto-ubiquitinylation of the E3 ligase. […] When these two fluorophores are brought together by a biomolecular interaction (in this case ubiquitinylation of the E3 ligase), a portion of the energy captured by the Cryptate during excitation is released through fluorescence emission at 620 nm, while the remaining energy is transferred to XL665. This energy is then released by XL665 as specific fluorescence at 665 nm. […]
Background: TR-FRET usually uses a lanthanide donor and a delayed reading to cut background.

`Cc1c(C(=O)Nc2c(C)n(C)n(C3CCCCC3)c2=O)noc1[C@H]1OC[C@@H](C(C)(C)C)O1` (single isomer, unassigned) [Example 25c, 5-(4-(tert-Butyl)-1,3-dioxolan-2-yl)-N-(2-cyclohexyl-1,5-dimethyl-3-oxo-2,3-dihydro-1H-pyrazol-4-yl)-4-methylisoxazole-3-carboxamide]: it took 840 nM to reach half-maximal inhibition (IC50).

Regarding `Cc1c(C(=O)Nc2c(C)n(C)n(C3CCCCC3)c2=O)noc1C1OC[C@@H](C(C)(C)C)O1` (single isomer, unassigned) [Example 25a, 5-(4-(tert-butyl)-1,3-dioxolan-2-yl)-N-(2-cyclohexyl-1,5-dimethyl-3-oxo-2,3-dihydro-1H-pyrazol-4-yl)-4-methylisoxazole-3-carboxamide], the IC50 was determined as 160 nM.

One may read the IC50 as the point on the concentration scale where inhibition reaches its midpoint.
